We go through one compound from ChEMBL document CHEMBL5038633, “Development of ProTx-II Analogues as Highly Selective Peptide Blockers of Nav1.7 for the Treatment of Pain” (J Med Chem, 2022).

The chains behind the UniProt entries cited, without tags or fusion partners.
UniProt Q15858, whole entry: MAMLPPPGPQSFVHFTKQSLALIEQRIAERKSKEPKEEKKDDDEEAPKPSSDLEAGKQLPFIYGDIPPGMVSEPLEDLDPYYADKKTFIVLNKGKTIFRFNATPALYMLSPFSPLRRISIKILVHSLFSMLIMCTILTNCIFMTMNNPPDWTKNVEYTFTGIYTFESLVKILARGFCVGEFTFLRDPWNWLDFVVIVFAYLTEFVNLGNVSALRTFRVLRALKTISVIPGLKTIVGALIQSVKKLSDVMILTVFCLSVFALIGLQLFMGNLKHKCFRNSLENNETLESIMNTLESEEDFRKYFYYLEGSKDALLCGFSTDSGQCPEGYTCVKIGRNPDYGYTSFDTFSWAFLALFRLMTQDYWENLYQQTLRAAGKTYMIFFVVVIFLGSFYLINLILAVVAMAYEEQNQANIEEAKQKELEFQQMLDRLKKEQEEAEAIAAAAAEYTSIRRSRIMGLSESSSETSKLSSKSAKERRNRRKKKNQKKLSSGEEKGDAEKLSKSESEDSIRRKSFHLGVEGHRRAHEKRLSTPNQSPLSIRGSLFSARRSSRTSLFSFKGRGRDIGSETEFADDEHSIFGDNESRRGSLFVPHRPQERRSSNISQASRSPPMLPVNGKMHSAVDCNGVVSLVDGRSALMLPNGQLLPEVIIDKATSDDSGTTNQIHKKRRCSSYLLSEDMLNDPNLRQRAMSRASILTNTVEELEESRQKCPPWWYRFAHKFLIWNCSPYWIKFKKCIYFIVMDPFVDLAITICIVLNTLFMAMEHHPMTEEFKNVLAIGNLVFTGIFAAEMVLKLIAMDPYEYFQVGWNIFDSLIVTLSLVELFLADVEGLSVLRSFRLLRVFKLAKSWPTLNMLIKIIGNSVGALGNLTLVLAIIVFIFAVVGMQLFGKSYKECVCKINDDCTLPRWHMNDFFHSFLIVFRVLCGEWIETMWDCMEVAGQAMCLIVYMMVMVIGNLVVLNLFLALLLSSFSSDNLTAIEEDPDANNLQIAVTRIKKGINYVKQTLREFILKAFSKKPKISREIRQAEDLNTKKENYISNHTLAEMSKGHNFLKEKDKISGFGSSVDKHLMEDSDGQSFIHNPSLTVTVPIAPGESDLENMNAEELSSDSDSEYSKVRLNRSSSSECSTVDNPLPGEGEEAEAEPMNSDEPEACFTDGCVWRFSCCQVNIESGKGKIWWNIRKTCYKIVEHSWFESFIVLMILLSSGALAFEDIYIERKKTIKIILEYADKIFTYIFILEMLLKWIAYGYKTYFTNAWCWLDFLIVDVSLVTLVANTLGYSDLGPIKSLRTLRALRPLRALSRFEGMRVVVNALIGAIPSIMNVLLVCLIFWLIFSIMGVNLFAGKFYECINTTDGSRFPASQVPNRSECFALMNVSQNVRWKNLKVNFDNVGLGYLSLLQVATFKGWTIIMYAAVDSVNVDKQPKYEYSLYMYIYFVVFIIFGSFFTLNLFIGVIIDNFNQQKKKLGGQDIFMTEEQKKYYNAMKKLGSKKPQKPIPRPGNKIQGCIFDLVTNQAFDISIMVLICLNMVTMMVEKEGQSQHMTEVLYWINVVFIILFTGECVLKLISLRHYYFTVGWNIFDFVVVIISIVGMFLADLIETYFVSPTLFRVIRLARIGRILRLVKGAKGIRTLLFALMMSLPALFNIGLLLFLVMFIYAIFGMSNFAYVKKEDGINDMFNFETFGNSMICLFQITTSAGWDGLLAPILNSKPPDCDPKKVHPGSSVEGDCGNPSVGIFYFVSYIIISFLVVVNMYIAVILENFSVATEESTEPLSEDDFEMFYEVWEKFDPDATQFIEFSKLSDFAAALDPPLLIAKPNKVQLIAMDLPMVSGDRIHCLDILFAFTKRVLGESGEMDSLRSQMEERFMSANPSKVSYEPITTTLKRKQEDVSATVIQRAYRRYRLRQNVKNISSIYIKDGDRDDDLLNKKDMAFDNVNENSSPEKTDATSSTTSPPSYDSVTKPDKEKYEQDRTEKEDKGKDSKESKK

The target of assay [1] is T1, Sodium channel protein type 9 subunit alpha (Homo sapiens, UniProt Q15858). Kind of assay: Inhibition of human Nav1.7 stably expressed in cells with train pulses to -20 mV at 0.1 Hz and holding potential of -95 mV by Qube-automated patch clamp assay. Type of assay: cell-based.
Assay [2] concerns the target T1, Sodium channel protein type 9 subunit alpha. Put plainly: Inhibition of human Nav1.7 stably expressed in cells with train pulses to -20 mV at 0.1 Hz and holding potential of -95 mV by whole-cell QPatch HT assay. In kind it is cell-based. (The patch-clamp technique gives a direct electrical read-out from membranes.)

One may read the IC50 as the concentration that inhibits the measured activity by half. For `CSCC[C@@H]1NC(=O)CNC(=O)[C@H](CCC(=O)O)NC(=O)[C@@H]2CSSC[C@H](NC(=O)[C@@H](N)Cc3ccc(O)cc3)C(=O)N[C@@H](CCC(N)=O)C(=O)N[C@@H](CCCCN)C(=O)N[C@@H](Cc3c[nH]c4ccccc34)C(=O)N[C@@H](CCSC)C(=O)N[C@@H](Cc3c[nH]c4ccccc34)C(=O)N[C@@H]([C@@H](C)O)C(=O)N[C@H]3CSSC[C@H](NC(=O)[C@H](C(C)C)NC1=O)C(=O)N[C@@H](CCCNC(=N)N)C(=O)N[C@@H](CC(C)C)C(=O)N[C@@H](Cc1c[nH]c4ccccc14)C(=O)N[C@H](C(=O)N[C@@H](CCCCN)C(=O)N[C@@H](CCCCN)C(=O)N[C@@H](CCCCN)C(=O)N[C@@H](CC(C)C)C(=O)N[C@@H](Cc1c[nH]c4ccccc14)C(N)=O)CSSC[C@H](NC(=O)[C@H](CCCCN)NC(=O)[C@H](CCCNC(=N)N)NC(=O)[C@H](CCC(=O)O)NC(=O)[C@H](CO)NC(=O)[C@H](CC(=O)O)NC3=O)C(=O)N2`, the IC50 is 44 nM in assay [1] and 2.7 nM in assay [2].
